# In publication PMC9599461, “Stereoselectivity in the Membrane Transport of Phenylethylamine Derivatives by Human Monoamine Transporters and Organic Cation Transporters 1, 2, and 3” (Biomolecules, 2022):
# Chains of the proteins cited; added tags and fusions are not shown.
# UniProt P23975, whole entry: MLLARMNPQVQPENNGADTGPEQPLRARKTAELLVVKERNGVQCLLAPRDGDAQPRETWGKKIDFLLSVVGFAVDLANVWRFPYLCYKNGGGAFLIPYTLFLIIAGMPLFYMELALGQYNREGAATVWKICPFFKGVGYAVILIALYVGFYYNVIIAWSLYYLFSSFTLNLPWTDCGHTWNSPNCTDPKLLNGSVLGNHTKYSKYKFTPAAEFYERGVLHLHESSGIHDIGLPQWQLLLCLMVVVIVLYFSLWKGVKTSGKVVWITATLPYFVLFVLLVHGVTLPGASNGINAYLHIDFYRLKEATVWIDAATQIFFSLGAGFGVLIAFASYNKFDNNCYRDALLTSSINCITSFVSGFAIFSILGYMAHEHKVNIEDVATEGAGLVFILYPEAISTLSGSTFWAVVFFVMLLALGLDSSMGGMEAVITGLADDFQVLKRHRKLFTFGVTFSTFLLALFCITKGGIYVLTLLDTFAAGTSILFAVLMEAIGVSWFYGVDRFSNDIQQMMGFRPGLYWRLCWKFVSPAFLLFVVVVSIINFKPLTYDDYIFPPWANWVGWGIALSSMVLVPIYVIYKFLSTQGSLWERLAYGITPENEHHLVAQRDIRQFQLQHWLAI
# UniProt Q01959, whole entry: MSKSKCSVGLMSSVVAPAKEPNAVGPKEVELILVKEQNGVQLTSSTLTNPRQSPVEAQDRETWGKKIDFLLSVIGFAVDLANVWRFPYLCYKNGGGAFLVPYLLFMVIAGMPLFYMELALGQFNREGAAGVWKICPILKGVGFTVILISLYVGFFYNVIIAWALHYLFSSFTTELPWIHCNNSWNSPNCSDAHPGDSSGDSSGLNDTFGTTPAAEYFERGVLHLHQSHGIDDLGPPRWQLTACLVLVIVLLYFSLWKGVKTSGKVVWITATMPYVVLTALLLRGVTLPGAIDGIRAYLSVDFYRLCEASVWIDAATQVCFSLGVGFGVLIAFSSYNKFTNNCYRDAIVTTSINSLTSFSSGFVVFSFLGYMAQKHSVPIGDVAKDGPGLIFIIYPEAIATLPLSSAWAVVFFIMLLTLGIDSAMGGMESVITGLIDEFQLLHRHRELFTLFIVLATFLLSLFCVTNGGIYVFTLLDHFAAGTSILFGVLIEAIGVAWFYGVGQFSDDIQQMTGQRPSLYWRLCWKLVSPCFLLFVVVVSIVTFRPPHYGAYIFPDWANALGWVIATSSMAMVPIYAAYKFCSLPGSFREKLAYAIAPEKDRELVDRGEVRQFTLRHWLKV
# Assays:
# [1] = biological target: NET (Homo sapiens, UniProt P23975); experiment: Stereoselective uptake into NET-overexpressing HEK293 cells; settings: ratio between enantiomers, given as for (R) or for 1;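 note: intracellular enantiomers quantified in cell lysates by chiral HPLC-MS/MS after a 2 min substrate incubation, with uptake normalized to total cellular protein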
# [2] = biological target: DAT (Homo sapiens, UniProt Q01959); experiment: Stereoselective uptake into DAT-overexpressing HEK293 cells; settings: ratio between enantiomers, printed as for (R) or for 1 (also 1.00-fold for (R/S));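 note: intracellular accumulation measured by chiral HPLC-MS/MS in stably transfected HEK293 cells, normalized to total protein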
# [3] = biological target: T1, OCT1 (Homo sapiens, UniProt O15245); experiment: Stereoselective uptake into OCT1-overexpressing HEK293 cells; settings: ratio between enantiomers;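 note: enantiomers quantified inside cells by chiral HPLC-MS/MS, uptake normalized to total protein from bicinchoninic acid assay, substrates applied in HBSS+ buffer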
# T1 sequence (O15245 1-554): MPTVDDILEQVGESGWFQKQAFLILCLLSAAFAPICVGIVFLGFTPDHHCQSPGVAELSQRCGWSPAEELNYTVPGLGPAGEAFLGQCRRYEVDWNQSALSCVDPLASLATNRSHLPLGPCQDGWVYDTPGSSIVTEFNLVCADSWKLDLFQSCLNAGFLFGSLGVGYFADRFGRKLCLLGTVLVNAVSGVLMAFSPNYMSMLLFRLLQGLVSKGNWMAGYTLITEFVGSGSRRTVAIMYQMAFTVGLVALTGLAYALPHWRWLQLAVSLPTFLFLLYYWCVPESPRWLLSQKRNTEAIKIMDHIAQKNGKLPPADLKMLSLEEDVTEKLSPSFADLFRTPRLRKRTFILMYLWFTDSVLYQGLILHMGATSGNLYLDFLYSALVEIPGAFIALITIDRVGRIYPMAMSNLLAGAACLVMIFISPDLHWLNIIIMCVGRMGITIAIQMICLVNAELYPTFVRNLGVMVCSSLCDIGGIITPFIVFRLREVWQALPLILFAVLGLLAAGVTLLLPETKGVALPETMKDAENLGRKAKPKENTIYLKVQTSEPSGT
# [4] = biological target: T2, OCT3 (Homo sapiens, UniProt O75751); experiment: Stereoselective uptake into OCT3-overexpressing HEK293 cells; settings: ratio between enantiomers, given as for (S) or for 2;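 note: intracellular accumulation in HEK293 cells measured by chiral HPLC-MS/MS after a 2 min substrate exposure at 37 °C, uptake normalized to total protein (bicinchoninic acid assay)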
# T2 sequence (O75751 1-556): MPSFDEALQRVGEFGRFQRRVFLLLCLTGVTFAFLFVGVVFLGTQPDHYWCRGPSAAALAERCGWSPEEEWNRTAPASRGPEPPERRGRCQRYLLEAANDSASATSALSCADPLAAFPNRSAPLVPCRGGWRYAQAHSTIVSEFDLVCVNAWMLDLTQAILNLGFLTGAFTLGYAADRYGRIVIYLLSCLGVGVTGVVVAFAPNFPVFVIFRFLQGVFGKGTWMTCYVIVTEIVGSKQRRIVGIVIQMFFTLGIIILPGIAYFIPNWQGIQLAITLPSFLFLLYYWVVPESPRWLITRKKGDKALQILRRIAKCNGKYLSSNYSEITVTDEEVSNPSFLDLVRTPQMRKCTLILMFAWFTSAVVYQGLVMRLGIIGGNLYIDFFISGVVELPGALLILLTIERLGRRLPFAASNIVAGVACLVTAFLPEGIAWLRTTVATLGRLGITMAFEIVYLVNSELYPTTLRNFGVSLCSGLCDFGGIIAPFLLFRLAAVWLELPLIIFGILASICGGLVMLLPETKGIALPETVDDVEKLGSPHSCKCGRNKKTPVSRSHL
# [5] = biological target: T3, OCT2 (Homo sapiens, UniProt O15244, S270A); experiment: Stereoselective uptake into OCT2 (wild-type)-overexpressing HEK293 cells; settings: ratio between enantiomers
# T3 sequence (O15244 1-555 S270A): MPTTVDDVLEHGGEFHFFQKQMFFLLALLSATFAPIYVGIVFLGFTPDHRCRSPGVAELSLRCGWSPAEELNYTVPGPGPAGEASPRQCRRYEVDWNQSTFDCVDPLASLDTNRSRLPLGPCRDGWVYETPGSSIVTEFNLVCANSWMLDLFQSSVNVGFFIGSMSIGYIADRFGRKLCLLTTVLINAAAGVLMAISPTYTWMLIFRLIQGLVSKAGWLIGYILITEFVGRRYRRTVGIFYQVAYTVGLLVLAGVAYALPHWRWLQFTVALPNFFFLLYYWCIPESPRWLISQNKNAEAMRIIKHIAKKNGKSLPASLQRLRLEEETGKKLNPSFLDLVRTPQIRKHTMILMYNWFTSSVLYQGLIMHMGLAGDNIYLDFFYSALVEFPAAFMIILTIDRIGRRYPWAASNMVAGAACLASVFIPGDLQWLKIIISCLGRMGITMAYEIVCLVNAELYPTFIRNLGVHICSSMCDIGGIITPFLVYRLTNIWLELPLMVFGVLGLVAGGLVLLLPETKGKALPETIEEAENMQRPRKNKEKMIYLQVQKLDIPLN
# [6] = system: OCT2 A270S variant; experiment: Stereoselective uptake into OCT2 A270S variant-overexpressing HEK293 cells; settings: OCT2 wild-type versus A270S, 100 μM racemic substance, two minutes; given as for WT;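 note: uptake into HEK293 cells stably overexpressing human OCT2 variants, intracellular enantiomers quantified by chiral HPLC-MS/MS and normalized to total protein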
# [7] = given as for (S) or for 2 (second-eluting)
substance,measurement,setting,value
(R)-Epinephrine,Stereoselectivity ClInt,[1],1.41-fold for (R)
same,Stereoselectivity ClInt,[2],1.71-fold for (R)
same,Stereoselectivity ClInt,[3]; given as for (R) or for 1 (also 1.00-fold for 1/2),1.08-fold for (R)
same,Stereoselectivity Vmax,[3]; given as for (S) or for 2,1.04-fold for (S)
same,Stereoselectivity Km,[3]; [7],1.13-fold for (S)
same,Stereoselectivity ClInt,[4],1.78-fold for (S)
same,Stereoselectivity ClInt,[5]; given as for (R) or for 1,2.08-fold for (R)
same,Stereoselectivity Vmax,[5]; given as for (R) or for 1,1.82-fold for (R) **
same,Stereoselectivity Km,[5]; [7],1.14-fold for (S)
same,Transporter selectivity,[6],1.19 fold

# Marks after values point to notes of the source that are not given here.
